# Source: BindingDB's records for doi:10.1021/acs.jmedchem.0c00745 (National Institute of Diabetes and Digestive and Kidney …, 2020)
# Molecular target: T1, P2Y purinoceptor 14 (Homo sapiens, UniProt Q15391)
# T1 sequence (Q15391 whole entry): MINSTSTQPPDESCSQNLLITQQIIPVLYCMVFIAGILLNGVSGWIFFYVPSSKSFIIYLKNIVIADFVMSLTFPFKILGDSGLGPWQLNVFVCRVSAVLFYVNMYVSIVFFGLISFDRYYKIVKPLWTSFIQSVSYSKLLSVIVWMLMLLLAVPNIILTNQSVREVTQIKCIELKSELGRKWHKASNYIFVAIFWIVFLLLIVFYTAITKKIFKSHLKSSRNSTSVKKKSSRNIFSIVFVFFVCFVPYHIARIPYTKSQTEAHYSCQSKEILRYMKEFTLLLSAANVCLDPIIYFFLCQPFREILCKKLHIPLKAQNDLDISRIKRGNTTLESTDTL
# Experiment: Inhibition of MRS4174 binding to human P2Y14R expressed in CHO cells pre-incubated for 30 mins before MRS4174 addition and further incubated for 30 mins at pH 7.4 by flow cytomtery based competitive fluorescence assay
row,SMILES,IC50 [nM]
1,O=C(O)c1[nH]c(-c2ccc(C3CCNCC3)cc2)cc1-c1cn(-c2ccc(C(F)(F)F)cc2)nn1,11100
2,CC(C)(C)OC(=O)NCCOCCOCCOCCOCCOCCOCCOCCC(=O)N1CCC(c2ccc(-c3cc(C(=O)O)cc4cc(-c5ccc(C(F)(F)F)cc5)ccc34)cc2)CC1,2830
3,COCCOCCOCCOCCOCCOCCOCCC(=O)N1CCC(c2ccc(-c3cc(C(=O)O)cc4cc(-c5ccc(C(F)(F)F)cc5)ccc34)cc2)CC1,1410

# More lines, in order of falling IC50, values ahead:
row,IC50 [nM],SMILES
1,24400,NC(=O)c1ccc(-c2cc(C(=O)O)cc(C(=O)Nc3nc4cc(C(F)(F)F)ccc4[nH]3)c2)cc1
2,2440,NC(=O)c1ccc(-c2cc(C(=O)O)cc(C(=O)Nc3cc4cc(C(F)(F)F)ccc4[nH]3)c2)cc1
3,979,CC(=O)NCCOCCOCCOCCOCCOCCOCCOCCC(=O)N1CCC(c2ccc(-c3cc(C(=O)O)cc4cc(-c5ccc(C(F)(F)F)cc5)ccc34)cc2)CC1
